For 49 molecules, activity change, negative = substrate turnover results are on record in PubChem BioAssay AID588456 (National Center for Advancing Translational Sciences (NCATS), 2011).

The chains behind the UniProt entries cited, without tags or fusion partners.
UniProt O89049, whole entry: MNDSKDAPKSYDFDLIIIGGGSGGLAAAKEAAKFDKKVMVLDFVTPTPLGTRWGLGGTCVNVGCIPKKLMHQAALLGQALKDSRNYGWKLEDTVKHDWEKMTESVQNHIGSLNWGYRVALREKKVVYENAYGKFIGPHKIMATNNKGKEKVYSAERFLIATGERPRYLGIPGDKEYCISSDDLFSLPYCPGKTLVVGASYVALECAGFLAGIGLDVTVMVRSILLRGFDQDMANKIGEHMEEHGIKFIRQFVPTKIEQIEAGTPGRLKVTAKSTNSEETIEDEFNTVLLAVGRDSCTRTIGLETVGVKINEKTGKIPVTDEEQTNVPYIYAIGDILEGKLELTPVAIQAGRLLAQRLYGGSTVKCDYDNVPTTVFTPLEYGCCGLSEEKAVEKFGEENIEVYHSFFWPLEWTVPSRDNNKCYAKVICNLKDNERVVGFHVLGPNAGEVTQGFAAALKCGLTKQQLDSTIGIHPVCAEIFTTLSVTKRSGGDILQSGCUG

SMILES strings stand for the structures. Only a part is listed here, and it is no random draw. Activity calls are given as the source filed them. Calls come from the whole dose curve; as a rule, active = well fitted inhibition curve with a large enough effect; inconclusive = small, poorly fitted or top-dose-only effect; inactive = no such curve, though single readings can be large or run the other way.
% is set by controls: 0 for no effect and ±100 for the full control effect.

For the test, the target named is Thioredoxin reductase 1, cytoplasmic (Rattus norvegicus) (UniProt O89049). The experiment in a line: qHTS Assay for Substrates of Mammalian Selenoprotein Thioredoxin Reductase 1 (TrxR1): qHTS. Note: nearly all actives have a fitted effect of over 50% in size. Particulars: purified TrxR1 substrate turnover, NADPH consumption readout; at 114 µM (top of the series) unless noted. On the technique in general: Quantitative high-throughput screening tests each substance at several concentrations.
`COc1ccc(NC2CCN(CCc3ccccc3)CC2)c(OC)c1`: the activity change, negative = substrate turnover is inactive: 9.36% [at 57.1 µM]. Next, `COc1ccccc1C(=O)NCC1(N2CCOCC2)CCCCC1`: inactive: 0.855%.

As for `CCOc1ccc(C)cc1CN(CCCl)CCCl`, the activity change, negative = substrate turnover is inactive: 5.91% [at 57.1 µM]. Next, `O=C(NCC1(N2CCOCC2)CCCCC1)c1ccc(Cl)cc1`: inactive: -0.9%; `O=C1CCN(Cc2ccccc2)CC1`: inactive: -4.85%.

For the molecule `O=C(NCC1(N2CCCCC2)CCCCC1)c1ccco1`, the activity change, negative = substrate turnover was inactive: -3.49%. Next, `CC(C)(C)c1ccc(C(=O)NCC2(N3CCOCC3)CCCCC2)cc1`: inactive: -5.19%; `CN(C)c1ccc(C(=O)NCC2(N3CCCCC3)CCCCC2)cc1`: inactive: -8.76% [at 57.1 µM]. Take `Cn1c(=O)[nH]cc(N(CCCl)CCCl)c1=O`: the activity change, negative = substrate turnover was inactive: -4.73%. Turning to `Cc1ccccc1C(=O)NCC1(N(C)C)CCCCC1`, the activity change, negative = substrate turnover was inactive: 1.06%. Next, `Cc1ccccc1NC1(C#N)CCN(Cc2ccccc2)CC1`: inactive: 3.17%; `CCN1CCC(Nc2cccc(F)c2)CC1`: inactive: -5.71%; `Cc1ccc(NC2(C#N)CCN(Cc3ccccc3)CC2)cc1`: inactive: 4.83% [at 57.1 µM]. With `Cc1ccc(C(=O)NCC2(N3CCCCC3)CCCCC2)o1` the figure was inactive: 1.39%; with `Fc1ccccc1NC1CCN(Cc2ccccc2)CC1`, inactive: 4.49%; with `COc1cc(OC)cc(C(=O)NCC2(N3CCCCC3)CCCCC2)c1`, inactive: 8.5% [at 57.1 µM]. Next, `CN(C)C1(CNC(=O)c2ccc(C(C)(C)C)cc2)CCCCC1`: inactive: 0.449%. In the case of `CC(=O)N(c1ccccc1)C1CCNCC1`, the activity change, negative = substrate turnover is inactive: -8.68%.

As for `CN1CCC(Nc2ccc(Cl)cc2)CC1`, the activity change, negative = substrate turnover was inactive: 2.12%. `CCC(CO)(C(=O)OC1CN2CCC1CC2)c1ccccc1` (centres undefined): the activity change, negative = substrate turnover is inactive: 9.43%. With `COc1cccc(C(=O)N(c2cc(C)cc(C)c2)C2CCN(C(=O)OC(C)(C)C)CC2)c1` the figure was inactive: -6.73%; with `COc1cc(OC)cc(C(=O)NCC2(N3CCOCC3)CCCCC2)c1`, inactive: 7.8%; with `COc1cc(C(=O)NCC2(N3CCOCC3)CCCCC2)cc(OC)c1OC`, inactive: 4.86%. With `ClCCN(CCCl)c1ccccc1` the figure was inactive: -0.0035%. `CCCOc1ccc(C(=O)NCC2(N(C)C)CCCCC2)cc1`: the activity change, negative = substrate turnover was inactive: 10.7%. On to `CC(C)(C)OC(=O)N1CCC(Nc2ccccc2)CC1`, for which the activity change, negative = substrate turnover was inactive: 1.83%. Next, `ClCCN(CCCl)c1ccc(C=C2C=CC=C2)cc1`: inactive: -8.08%; `O=C(O)C1(Nc2ccccc2)CCN(Cc2ccccc2)CC1`: inactive: -0.0502%; `CCOc1ncccc1C(=O)NCC1(N2CCOCC2)CCCCC1`: inactive: -6.17%. As for `CN1CCC(Nc2ccc(F)c(Cl)c2)CC1`, the activity change, negative = substrate turnover is inactive: -4.06% [at 57.1 µM]. With `CCc1cc(C(=O)NCC2(N3CCCCC3)CCCCC2)sc1C` the figure was inactive: -6%; with `O=C(OC1CN2CCC1CC2)C1c2ccccc2C=Cc2ccccc21` (centres undefined), inactive: 24.6%. Next, `O=C(O)c1cccc(Nc2c([N+](=O)[O-])cc([N+](=O)[O-])cc2[N+](=O)[O-])c1`: inactive: -13.3%; `N/C(=N\O)c1c(N)no[n+]1[O-]`: inactive: -1.45%. Next, `CCOC(=O)N1CCC(Nc2ccc(C)cc2)CC1`: inactive: 6.82% [at 57.1 µM]; `COc1ccc(C(=O)NCC2(N3CCOCC3)CCCCC2)cc1OC`: inactive: -14.5%; `O=Cc1ccc(N(CCCl)CCCl)cc1`: inactive: -0.313%. Turning to `O=C(NCC1(N2CCOCC2)CCCCC1)c1cc(Br)ccc1Cl`, the activity change, negative = substrate turnover is inactive: 5.65%. With `COc1cc(C(=O)NCC2(N3CCOCC3)CCCCC2)cc(OC)c1C` the figure was inactive: 3.42%; with `c1ccc(CN2CCC(Nc3ccccc3)CC2)cc1`, inactive: -4.01%. Next, `Cc1cc(N(CCCl)CCCl)ccc1C=O`: inactive: 7.06% [at 11.4 µM]; `O=C(NCC1(N2CCOCC2)CCCCC1)c1ccccc1`: inactive: -1.32%. Next, `CCCN1CCC(Nc2cc(OC)cc(OC)c2)CC1`: inactive: 5.84% [at 57.1 µM]; `CN(C)C1(CNC(=O)c2cccc(C#N)c2)CCCCC1`: inactive: 6.91% [at 57.1 µM].

As to `CCOC(=O)C(CC)C1=NC(C)(C)Cc2ccccc21.O=[N+]([O-])c1cc([N+](=O)[O-])c(O)c([N+](=O)[O-])c1` (centres undefined), the activity change, negative = substrate turnover is inactive: -15.3%. With `CC(C)(C)OC(=O)N1CCC(N(C(=O)c2ccccc2)c2ccc(Cl)cc2)CC1` the figure was inactive: -5.4%; with `O=C(NCC1(N2CCOCC2)CCCCC1)c1ccc([N+](=O)[O-])cc1`, inactive: 6%; with `O=C(NCC1(N2CCOCC2)CCCCC1)c1ccccc1[N+](=O)[O-]`, inactive: 1.17%.

For `N#Cc1ccc(C(=O)NCC2(N3CCCCC3)CCCCC2)cc1`, the activity change, negative = substrate turnover is inactive: 0.316% [at 57.1 µM].
